{"source": "patent US4824781A", "about": "(Degussa Aktiengesellschaft, priority 1985, dated 1989)", "key": {"[1]": {"system": "D(-)-Mandelate-Dehydrogenase", "experiment": "Influence of various reagents and metal ions on the enzymatic activity (reduction of benzoyl formate)", "format": "biochemical, Lactobacillus curvatus DSM 20019", "conditions": "for Relative Activity (%): enzyme incubated 5 minutes at 20° C. with reagent; for Inhibition of the enzyme (in words): 0.1 mM"}, "[2]": {"system": "D(-)-Mandelate-Dehydrogenase", "conditions": "pH 7.0"}, "[3]": {"system": "D(-)-Mandelate-Dehydrogenase", "experiment": "Dependency of the speed of the dehydrogenation of D-2-hydroxycarboxylic acids on substrate and NAD+ concentration (Michaelis-Menten)", "format": "biochemical, Lactobacillus curvatus DSM 20019", "conditions": "for Km / max. Initial Reaction Velocity Vmax (%) (relative to D(-)-Mandelate): dehydrogenation; for max. Initial Reaction Velocity Vmax (%) (relative to D(-)-Mandelate): 2-hydroxyacid 0.25 to 300 mM"}, "[4]": {"conditions": "read-out: KM Value, reduction, 0.25 mM NADH, 2-ketoacid 0.05 to 9 mM"}, "[5]": {"conditions": "reduction, 0.25 mM NADH, 2-ketoacid 0.05 to 9 mM"}}, "note": "Where a name gives a salt, the structure may show the parent alone. Read-outs that look alike come from different tables or passages of the source.", "data": [{"smiles": "[Cl-].[Cl-].[Zn+2]", "note": "[ZnCl2]", "values": [{"measurement": "Relative Activity (%)", "setting": "[1]; reagent 1 mM", "value": 88, "unit": "%"}]}, {"smiles": "[Ca+2].[Cl-].[Cl-]", "note": "[CaCl2]", "values": [{"measurement": "Relative Activity (%)", "setting": "[1]; reagent 1 mM", "value": 90, "unit": "%"}]}, {"smiles": "c1ccc(-c2ccccn2)nc1", "note": "[2.2-Dipyridil]", "values": [{"measurement": "Relative Activity (%)", "setting": "[1]; reagent 0.1 mM", "value": 100, "unit": "%"}, {"measurement": "Relative Activity (%)", "setting": "[1]; reagent 10 mM", "value": 86, "unit": "%"}]}, {"smiles": "O=S(=O)([O-])[O-].[Co+2]", "note": "[CoSO4]", "values": [{"measurement": "Relative Activity (%)", "setting": "[1]; reagent 0.1 mM", "value": 97, "unit": "%"}, {"measurement": "Relative Activity (%)", "setting": "[1]; reagent 1 mM", "value": 91, "unit": "%"}]}, {"smiles": "[Cl][Cd][Cl]", "note": "[CdCl2]", "values": [{"measurement": "Relative Activity (%)", "setting": "[1]; reagent 0.1 mM", "value": 93, "unit": "%"}, {"measurement": "Relative Activity (%)", "setting": "[1]; reagent 1 mM", "value": 82, "unit": "%"}]}, {"smiles": "[Cl][Hg][Cl]", "note": "[HgCl2]", "values": [{"measurement": "Influence of inhibitors (in words)", "setting": "[1]", "value": "strongly inhibited"}, {"measurement": "Inhibition of the enzyme (in words)", "setting": "[1]", "value": "strongly inhibited"}, {"measurement": "Relative Activity (%)", "setting": "[1]; reagent 0.1 mM", "value": 0, "unit": "%"}, {"measurement": "Relative Activity (%)", "setting": "[1]; reagent 1 mM", "value": 0, "unit": "%"}, {"measurement": "Relative Activity (%)", "setting": "[1]; reagent 10 mM", "value": 0, "unit": "%"}]}, {"smiles": "O=C(O)C(=O)c1ccccc1", "note": "[Benzoylformate, benzoyl formate]", "values": [{"measurement": "Concentration at which the optimum speed of reaction was reached", "setting": "[2]; benzoyl formate varied 0.02 mM to 8 mM, 0.25 mM NADH", "value": 1.5, "unit": "mM"}, {"measurement": "Km", "setting": "[2]; [4]", "value": 220, "unit": "µM"}, {"measurement": "Km", "setting": "[2]; read-out: KM value for the substrate benzoyl formate, reduction reaction, 0.25 mM NADH", "value": 220, "unit": "µM"}, {"measurement": "Max. Initial Reaction Speed Vmax (%) (relative to Benzoyl formate)", "setting": "[2]; [5]", "value": 100, "unit": "%"}]}, {"smiles": "NC(=O)c1ccc[n+]([C@@H]2O[C@H](COP(=O)(O)OP(=O)([O-])OC[C@H]3O[C@@H](n4cnc5c(N)ncnc54)[C@H](O)[C@@H]3O)[C@@H](O)[C@H]2O)c1", "note": "[NAD^+]", "values": [{"measurement": "Concentration at which the optimum reaction was reached", "setting": "[3]; NAD+ varied 0.05 mM to 6 mM, pH 8.5, 2 mM D-(-)-mandelate", "value": 3, "unit": "mM"}, {"measurement": "Km", "setting": "[3]; Tris/HCl pH 8.5, 2 mM D-(-)-mandelate, read-out: KM value for NAD+", "value": 200, "unit": "µM"}]}, {"smiles": "[Cl][Fe]([Cl])[Cl]", "note": "[FeCl3]", "values": [{"measurement": "Relative Activity (%)", "setting": "[1]; reagent 0.1 mM", "value": 91, "unit": "%"}]}, {"smiles": "c1cnc2c(c1)ccc1cccnc12", "note": "[1.10 Phenanthroline]", "values": [{"measurement": "Relative Activity (%)", "setting": "[1]; reagent 0.1 mM", "value": 96, "unit": "%"}, {"measurement": "Relative Activity (%)", "setting": "[1]; reagent 1 mM", "value": 96, "unit": "%"}]}, {"smiles": "[Na+].[Na+].[O]=[Mo](=[O])([O-])[O-]", "note": "[Na2 MoO4]", "values": [{"measurement": "Relative Activity (%)", "setting": "[1]; reagent 0.1 mM", "value": 90, "unit": "%"}, {"measurement": "Relative Activity (%)", "setting": "[1]; reagent 1 mM", "value": 88, "unit": "%"}, {"measurement": "Relative Activity (%)", "setting": "[1]; reagent 10 mM", "value": 73, "unit": "%"}]}, {"smiles": "O[C@H](CS)[C@H](O)CS", "note": "(racemic) [Dithiothreitol]", "values": [{"measurement": "Relative Activity (%)", "setting": "[1]; reagent 0.1 mM", "value": 100, "unit": "%"}, {"measurement": "Relative Activity (%)", "setting": "[1]; reagent 1 mM", "value": 100, "unit": "%"}, {"measurement": "Relative Activity (%)", "setting": "[1]; reagent 10 mM", "value": 100, "unit": "%"}]}, {"smiles": "O=C(O)C(O)Cc1ccccc1", "note": "(racemic) [D,L-Phenyllactate]", "values": [{"measurement": "max. Initial Reaction Velocity Vmax (%) (relative to D(-)-Mandelate)", "setting": "[3]; pH 8.0, 3 mM NAD+", "value": 22, "unit": "%"}, {"measurement": "Km", "setting": "[3]; pH 8.0, 3 mM NAD+, D-enantiomer assumed 50% in D,L-compounds, read-out: KM-Value", "value": 2500, "unit": "µM"}]}, {"smiles": "[Cl][Ni][Cl]", "note": "[NiCl2]", "values": [{"measurement": "Relative Activity (%)", "setting": "[1]; reagent 0.1 mM", "value": 95, "unit": "%"}, {"measurement": "Relative Activity (%)", "setting": "[1]; reagent 1 mM", "value": 91, "unit": "%"}, {"measurement": "Relative Activity (%)", "setting": "[1]; reagent 10 mM", "value": 68, "unit": "%"}]}, {"smiles": "[Cl-].[Cl-].[Mg+2]", "note": "[MgCl2]", "values": [{"measurement": "Relative Activity (%)", "setting": "[1]; reagent 1 mM", "value": 89, "unit": "%"}, {"measurement": "Relative Activity (%)", "setting": "[1]; reagent 10 mM", "value": 81, "unit": "%"}]}, {"smiles": "NC(=O)CI", "note": "[Iodacetamide]", "values": [{"measurement": "Relative Activity (%)", "setting": "[1]; reagent 0.1 mM", "value": 98, "unit": "%"}, {"measurement": "Relative Activity (%)", "setting": "[1]; reagent 1 mM", "value": 96, "unit": "%"}, {"measurement": "Relative Activity (%)", "setting": "[1]; reagent 10 mM", "value": 91, "unit": "%"}]}, {"smiles": "O=S(=O)([O-])[O-].[Cu+2]", "note": "[CuSO4]", "values": [{"measurement": "Influence of inhibitors (in words)", "setting": "[1]", "value": "strongly inhibited"}, {"measurement": "Inhibition of the enzyme (in words)", "setting": "[1]", "value": "strongly inhibited"}, {"measurement": "Relative Activity (%)", "setting": "[1]; reagent 0.1 mM", "value": 6.4, "unit": "%"}, {"measurement": "Relative Activity (%)", "setting": "[1]; reagent 1 mM", "value": 6.1, "unit": "%"}]}, {"smiles": "[K+].[K+].[O]=[Cr](=[O])([O-])[O][Cr](=[O])(=[O])[O-]", "note": "[K2 Cr2 O7]", "values": [{"measurement": "Relative Activity (%)", "setting": "[1]; reagent 0.1 mM", "value": 99, "unit": "%"}]}, {"smiles": "NC(=O)C1=CN([C@@H]2O[C@H](COP(=O)(O)OP(=O)(O)OC[C@H]3O[C@@H](n4cnc5c(N)ncnc54)[C@H](O)[C@@H]3O)[C@@H](O)[C@H]2O)C=CC1", "note": "[NADH, nicotinamide-adenine-dinucleotide]", "values": [{"measurement": "Concentration at which the optimum speed of reaction was reached", "setting": "[2]; NADH varied 0.01 to 0.30 mM, 6 mM benzoyl formate", "value": 0.25, "unit": "mM"}, {"measurement": "Km", "setting": "[2]; read-out: KM value for NADH, reduction, 6 mM benzoyl formate", "value": 36, "unit": "µM"}]}, {"smiles": "O=C(O)C(=O)Cc1ccc(O)c(O)c1", "note": "[3-(3'-4') Dihydroxyphenyl-pyruvate]", "values": [{"measurement": "Km", "setting": "[2]; [4]", "value": 370, "unit": "µM"}, {"measurement": "Max. Initial Reaction Speed Vmax (%) (relative to Benzoyl formate)", "setting": "[2]; [5]", "value": 4, "unit": "%"}]}, {"smiles": "O=C(O)C(O)c1ccccc1", "note": "(racemic) [D,L-Mandelate]", "values": [{"measurement": "max. Initial Reaction Velocity Vmax (%) (relative to D(-)-Mandelate)", "setting": "[3]; pH 8.0, 3 mM NAD+", "value": 100, "unit": "%"}]}, {"smiles": "OCCS", "note": "[2-Mercaptoethanol]", "values": [{"measurement": "Relative Activity (%)", "setting": "[1]; reagent 0.1 mM", "value": 96, "unit": "%"}, {"measurement": "Relative Activity (%)", "setting": "[1]; reagent 1 mM", "value": 93, "unit": "%"}, {"measurement": "Relative Activity (%)", "setting": "[1]; reagent 10 mM", "value": 90, "unit": "%"}]}]}
